The numbers were not newly measured in US20250205181A1, “ANANDAMIDE CYCLODEXTRIN INCLUSION COMPLEX VEHICLES” (CZAP RESEARCH AND DEVELOPMENT, LLC, priority 2021, published 2025), which cites them from elsewhere.

Chains of the proteins cited; added tags and fusions are not shown.
UniProt P20272, whole entry: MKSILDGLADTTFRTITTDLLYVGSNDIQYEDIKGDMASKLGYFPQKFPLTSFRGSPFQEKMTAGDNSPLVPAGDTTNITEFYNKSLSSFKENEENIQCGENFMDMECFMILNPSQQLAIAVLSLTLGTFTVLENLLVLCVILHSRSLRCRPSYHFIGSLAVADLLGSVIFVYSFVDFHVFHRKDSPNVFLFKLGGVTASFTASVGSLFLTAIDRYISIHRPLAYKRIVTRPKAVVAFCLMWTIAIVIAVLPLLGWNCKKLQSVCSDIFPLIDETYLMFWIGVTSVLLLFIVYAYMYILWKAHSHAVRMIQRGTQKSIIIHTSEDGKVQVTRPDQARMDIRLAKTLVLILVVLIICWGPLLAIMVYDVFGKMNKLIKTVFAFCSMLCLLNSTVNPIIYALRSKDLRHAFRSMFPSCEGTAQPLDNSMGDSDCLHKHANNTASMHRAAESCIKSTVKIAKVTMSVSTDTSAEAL

By Ki is commonly meant a measure of affinity in units of concentration, obtained from inhibition or displacement.

In this series the target is CB1 receptor (Rattus norvegicus, UniProt P20272). To be noted: literature value, Lin et al., J Med Chem 1998; cited from earlier work.

Where only a bound is given, the exact number is not on record here.

On to `CCCCC/C=C\C/C=C\C/C=C\C/C=C\CCCC(=O)NCCO` [anandamide, (5Z,8Z,11Z,14Z)-N-(2-hydroxyethyl)icosa-5,8,11,14-tetraenamide], for which the Ki is below 0.1 µM.
